Measured values from patent US20050239832A1, “Methods of treatment of amyloidosis using bi-cyclic aspartyl protease inhibitors” (priority 2004, published 2005).

Assay: Brain uptake in CF-1 mice after IV administration
Details: 10 μmol/kg IV
Experimental: The following assay was employed to determine the brain penetration of compounds encompassed by the present invention.
In-life phase: Test compounds were administered to CF-1 (20-30 g) mice at 10 μmol/kg (4 to 7 mg/kg) following IV administration in the tail vein. Two time-points, 5 and 60 min, were collected post dose. Four mice were harvested for heparinized plasma and non-perfused brains at each time-point for a total of 8 mice per compound.
Analytical phase: Samples were extracted and evaporated to dryness, then reconstituted and injected onto a reverse phase chromatographic column while monitoring the effluent with a triple quadrupole mass spectrometer. Quantitation was then performed with a 1/x^2 weighted fit of the least-squares regression from calibration standards prepared in parallel with the in vivo samples. The LOQ is generally 1 ng/mL and 0.5 ng/g for the plasma and brain respectively. Data was reported in micromolar (μM) units. Brain levels were corrected for plasma volumes (16 μL/g).

## N-{1-(3,5-Difluoro-benzyl)-3-[6-(2,2-dimethyl-propyl)-1,2,3,4-tetrahydro-quinolin-4-ylamino]-2-hydroxy-propyl}-acetamide [Example 91.14]
5 min post dose
  [Brain/[Plasma] 5 min: 0.2
60 min post dose
  [Brain/[Plasma] 60 min: 2.2
